Experimental findings from patent publication US20130244232A1, “HIGH-EFFICIENCY CATALYSTS, PREPARATION AND USE THEREOF” (priority 2012, published 2013) are described below.

Read-outs that look alike come from different tables or passages of the source.

The data set in a line: Peroxidase activity: ABTS oxidation with H2O2 (formation of ABTS+• radical cation at 660 nm). Conditions: for Specific activity: ABTS oxidation with H2O2, pH 6.5. The data set is classed as biochemical. How it is done: The peroxidase activity of the compound on the secondary substrate ABTS was evaluated by following the formation of the ABTS^+• radical cation, in the presence of H2O2.
The reaction was followed by using spectrophotometry, measuring the appearance of the products in the reaction medium. The formation of ABTS^+• cation radical was followed at 660 nm (λmax (ε)=660 nm (1.40×10^4 M^−1cm^−1)). The reaction was performed in 50% TFE (v/v) 100 mM phosphate buffer, pH 6.5, using a 2.0×10^−7 M catalyst concentration.
Kinetic parameters of the compound were determined by varying the H2O2 concentration using fixed concentrations of the reducing substrates, and vice versa.
In more details, in the experiments performed at various H2O2 concentrations (in the range 0.01÷ 200 mM) the ABTS concentration was kept constant at 0.1 mM. In the experiments performed at various ABTS concentrations (in the range 0.005÷ 0.1 mM) the H2O2 concentration was 50 mM.
The experiments were performed in 50% TFE (v/v) 100 mM phosphate buffer, pH 6.5. As described in the example 10, the catalytic process was evaluated by following the formation of the ABTS^+• radical cation at 660 nm (c=[…] cm^−1). Kinetic parameters of the compound were determined by varying the H2O2 concentration using fixed concentrations of the reducing substrates, and vice versa.
In more details, in the first experiment the ABTS and the conjugate concentrations were kept constant at 0.1 mM and 2 10^−7 M, respectively, and the H2O2 concentration was varied in the range 10-100 mM. In the second experiment, the H2O2 and the conjugate concentrations were fixed at 50 mM and 2 10^−7 M, respectively, and the ABTS concentration was varied in the range 0.005÷ 0.1 mM.

Broadly, the kcat is the number of substrate molecules converted per active site and unit of time at saturation. The Km is the substrate concentration at which the rate is half of its maximum. As for “3,7,12,17-tetramethyl-porphyrin-2(18)-N9epsilon-(Ace-Asp1-Leu2-Gln3-Gln4-Leu5-His6-Ser7-Gln8-Lys9-Arg10-Lys11-Ile12-Thr13-Leu14-NH2)-18(2)-N9epsilon-(Ace-Asp1-Glu2-Gln3-Gln4-Leu5-Ser6-Ser7-Gln8-Lys9-Arg10-NH2)-di-propionamide [Example 6]”, the Specific activity is 13.43 mol/g/min. Besides, the kcat (ABTS oxidation with H2O2, pH 6.5, 50% TFE (v/v) 100 mM phosphate buffer) was found to be 785 s⁻¹. The Km (ABTS oxidation with H2O2, pH 6.5, 50% TFE (v/v) 100 mM phosphate buffer, read-out: Km^H2O2) is 31 mM. Besides, the Specific activity (listed as Esempio 6) was 13.430 mol/g/min. Further, for the setting “AH2 = ABTS, pH 6.5, 50% TFE (v/v) 100 mM phosphate buffer, read-out: Km^AH2”, the Km came out at 0.05 mM.
